The results in this text go back to ChEMBL document CHEMBL1128075, “Chemical modification and structure-activity relationships of pyripyropenes; potent, bioavailable inhibitor of acyl-CoA: Cholesterol O-acyltransferase (ACAT)” (Bioorg Med Chem Lett, 1995).

A word on the IC50: it is the concentration needed to halve the response being measured. A higher IC50 goes with lower potency.

This assay concerns the target T1, Sterol O-acyltransferase 2 (Rattus norvegicus, UniProt Q7TQM4).
T1 sequence (Q7TQM4 whole entry): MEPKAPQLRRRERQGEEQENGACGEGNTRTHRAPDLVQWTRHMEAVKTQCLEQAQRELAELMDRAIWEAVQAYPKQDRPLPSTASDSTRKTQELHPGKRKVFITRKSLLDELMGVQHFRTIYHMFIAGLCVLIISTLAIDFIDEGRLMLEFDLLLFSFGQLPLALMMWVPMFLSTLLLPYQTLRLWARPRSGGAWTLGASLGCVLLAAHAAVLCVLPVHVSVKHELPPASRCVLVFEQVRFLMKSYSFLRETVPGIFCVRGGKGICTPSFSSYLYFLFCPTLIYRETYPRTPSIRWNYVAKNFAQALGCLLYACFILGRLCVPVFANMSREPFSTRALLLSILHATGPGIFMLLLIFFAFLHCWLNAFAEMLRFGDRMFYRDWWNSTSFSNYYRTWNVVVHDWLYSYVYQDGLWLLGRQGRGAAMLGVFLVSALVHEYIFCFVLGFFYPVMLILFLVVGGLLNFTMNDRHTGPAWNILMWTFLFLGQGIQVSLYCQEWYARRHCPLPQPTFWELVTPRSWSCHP
Description: Inhibitory activity against acyl-CoA:cholesterol O-acyltransferase (ACAT).

Take `CC(=O)OCC1(C)C2C[C@H](OC(=O)c3ccccc3)[C@@]3(C)Oc4cc(-c5cccnc5)oc(=O)c4[C@H](O)C3[C@@]2(C)CC[C@@H]1OC(C)=O` (single isomer, unassigned): half-maximal inhibition (IC50) was put at 85 nM. This counts as double-digit nanomolar.
